## Ab-14 light chain CDR variants: yeast mating affinities

Data: MIT Lincoln Laboratory AlphaSeq set, Li et al. 2023, doi:10.1038/s41467-023-39022-2, as distributed in FLAb.

Target peptide (SARS-CoV-2 spike, HR2 region): PDVDLGDISGINAS

Parent: Ab-14, a human scFv built as VH, a (GGGGS)3 linker, VL. Only the CDRs of the light chain vary.
VH: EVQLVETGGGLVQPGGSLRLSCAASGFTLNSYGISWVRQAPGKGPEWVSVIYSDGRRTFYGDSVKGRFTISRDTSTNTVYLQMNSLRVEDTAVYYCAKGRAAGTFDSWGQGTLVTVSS
VL: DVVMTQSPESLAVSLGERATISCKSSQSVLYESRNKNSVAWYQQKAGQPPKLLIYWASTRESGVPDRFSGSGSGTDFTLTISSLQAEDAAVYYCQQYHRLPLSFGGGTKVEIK

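Phage display of a naive human antibody library on the peptide gave the parent. The variants were designed computationally from a first round of random CDR variants and then made and measured. Group labels follow the data file (Ctrl: baseline library sampled from a position-specific scoring matrix, with some repeated check sequences; GP: Gaussian process model; HC: hill climbing; Gen: genetic algorithm; a sequence that several methods proposed may carry one label only). In AlphaSeq, yeast of one mating type display the scFv and yeast of the other type display the target. Binding brings cells together so that they mate, and sequencing counts the barcode pairs among the diploids. Each replicate has its own calibration line, from reference interactions of the BCL2 family. Each pool was mated in six replicate cultures.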

Changes read parent residue, position, new residue, counted from the first residue of the VL shown.
Numbers give log10(Kd / nM), so 0 is 1 nM and 3 is 1 µM. Smaller is tighter.
Averages over replicates are reported, and they cover detected replicates only.
An entry "ND" has no value in the source: the pair was not observed among the diploids in that replicate. This suggests poor binding but is not conclusive.
Of ten entries with the parent sequence, four were seen in most replicates (averages 0.34 to 2.37), three in one and three in none, so single entries are noisy.
A sequence that the file lists under several names has all its replicates listed entry by entry, parted by semicolons.
In the paper, a design with two or fewer of six values counts as a poor binder.
Values of this round are not directly comparable with the first-round values of the same sequences.
As a blank, each scFv also met three strains without target: over all light chain designs, 4% of these pairings were detected, typically at 2.64 and seldom below 1.59. For each scFv, signals with the empty controls are counted beside the result, with their mean in brackets.

{"changes": "R34N L102F", "group": "Ctrl", "log10 Kd (nM) by replicate": "1.63 / 1.90 / 1.10 / 0.85 / 1.63 / 1.54", "mean log10 Kd (nM)": "1.44", "empty controls": "1/18 (1.60)"}
{"changes": "Y31Q S33A P101W", "group": "Ctrl", "log10 Kd (nM) by replicate": "1.64 / 2.52 / 2.32 / ND / 2.48 / 3.23", "mean log10 Kd (nM)": "2.44", "empty controls": "2/18 (2.49)"}
{"changes": "Q27G V29T R34P W56D Y97Q", "group": "Ctrl", "log10 Kd (nM) by replicate": "1.04 / 1.34 / 0.76 / 1.11 / 1.04 / 1.30", "mean log10 Kd (nM)": "1.10", "empty controls": "1/18 (1.92)"}
{"changes": "S28P S33F R34E W56A", "group": "Ctrl", "log10 Kd (nM) by replicate": "0.77 / 0.60 / 0.66 / 0.61 / 0.92 / 0.78", "mean log10 Kd (nM)": "0.72", "empty controls": "2/18 (2.99)"}
{"changes": "S28G V29T", "group": "Ctrl", "log10 Kd (nM) by replicate": "ND / 1.46 / ND / 1.03 / ND / ND", "mean log10 Kd (nM)": "1.25", "empty controls": "0/18"}
{"changes": "V29F Y31S", "group": "Ctrl", "log10 Kd (nM) by replicate": "1.72 / 1.45 / 0.66 / 1.22 / 1.72 / 2.81", "mean log10 Kd (nM)": "1.60", "empty controls": "2/18 (1.86)"}
{"changes": "Q27W S103N", "group": "Ctrl", "log10 Kd (nM) by replicate": "ND / ND / ND / ND / ND / ND", "mean log10 Kd (nM)": "ND", "empty controls": "0/18"}
{"changes": "W56G Q96A", "group": "Ctrl+GP_HC", "log10 Kd (nM) by replicate": "0.88 / 0.78 / 0.79 / 0.90 / 0.95 / 0.73; 0.02 / 0.17 / -0.53 / -0.17 / -0.42 / 0.25", "mean log10 Kd (nM)": "0.36", "empty controls": "1/36 (3.69)"}
{"changes": "K24Y S25L S33D W56N", "group": "Ctrl+GP_Gen", "log10 Kd (nM) by replicate": "-0.10 / 0.01 / -0.30 / -0.39 / -0.30 / -0.02; ND / 1.63 / 0.61 / 1.16 / 0.59 / 0.68", "mean log10 Kd (nM)": "0.32", "empty controls": "0/36"}
{"changes": "S33L R34I E61N Q95T", "group": "Ctrl", "log10 Kd (nM) by replicate": "ND / ND / ND / 3.11 / ND / ND", "mean log10 Kd (nM)": "3.11", "empty controls": "1/18 (1.98)"}
{"changes": "L30Q R34L", "group": "Ctrl", "log10 Kd (nM) by replicate": "1.20 / 1.09 / 0.51 / 0.47 / 0.59 / 0.41", "mean log10 Kd (nM)": "0.71", "empty controls": "1/18 (1.19)"}
{"changes": "L30G W56A", "group": "Ctrl", "log10 Kd (nM) by replicate": "1.46 / 1.26 / 1.09 / 1.14 / 1.32 / 1.46", "mean log10 Kd (nM)": "1.29", "empty controls": "1/18 (2.78)"}
{"changes": "V39G S103K", "group": "Ctrl", "log10 Kd (nM) by replicate": "ND / ND / ND / ND / ND / ND", "mean log10 Kd (nM)": "ND", "empty controls": "1/18 (1.63)"}
{"changes": "S25M S26R Y31N", "group": "Ctrl", "log10 Kd (nM) by replicate": "1.22 / 1.32 / 1.97 / 1.34 / 0.90 / 1.39", "mean log10 Kd (nM)": "1.36", "empty controls": "1/18 (2.95)"}
{"changes": "S25G Y31R Q95D L100M", "group": "Ctrl", "log10 Kd (nM) by replicate": "ND / ND / ND / ND / ND / ND", "mean log10 Kd (nM)": "ND", "empty controls": "0/18"}
{"changes": "V29L S58R", "group": "Ctrl", "log10 Kd (nM) by replicate": "ND / ND / ND / ND / ND / ND", "mean log10 Kd (nM)": "ND", "empty controls": "0/18"}
{"changes": "W56G Q95L", "group": "Ctrl", "log10 Kd (nM) by replicate": "0.22 / 0.45 / 0.26 / 0.07 / 0.55 / 0.83", "mean log10 Kd (nM)": "0.40", "empty controls": "1/18 (2.83)"}
{"changes": "K24H S25M Q27P Y31H R34P W56A Y97D", "group": "Ctrl", "log10 Kd (nM) by replicate": "1.41 / 2.23 / 1.26 / 1.24 / 1.55 / 1.79", "mean log10 Kd (nM)": "1.58", "empty controls": "0/18"}
{"changes": "V29E W56N", "group": "Ctrl+GP_Gen", "log10 Kd (nM) by replicate": "-0.08 / -0.15 / -0.37 / -0.20 / -0.25 / -0.12; 0.87 / 0.81 / 0.68 / 0.89 / 0.54 / 1.10", "mean log10 Kd (nM)": "0.31", "empty controls": "1/36 (2.75)"}
{"changes": "N35G R99T", "group": "Ctrl", "log10 Kd (nM) by replicate": "1.08 / 1.88 / 1.90 / 1.95 / 1.62 / 2.50", "mean log10 Kd (nM)": "1.82", "empty controls": "0/18"}
{"changes": "S25I R34P W56Q", "group": "Ctrl", "log10 Kd (nM) by replicate": "0.05 / -0.15 / -0.26 / -0.09 / -0.21 / 0.05", "mean log10 Kd (nM)": "-0.10", "empty controls": "0/18"}
{"changes": "R34D H98S R99A", "group": "Ctrl", "log10 Kd (nM) by replicate": "2.57 / 1.70 / 2.29 / 2.77 / 3.77 / 2.65", "mean log10 Kd (nM)": "2.62", "empty controls": "1/18 (2.37)"}
{"changes": "H98V", "group": "Ctrl", "log10 Kd (nM) by replicate": "0.26 / 1.31 / 0.44 / 1.71 / 1.48 / 2.42", "mean log10 Kd (nM)": "1.27", "empty controls": "0/18"}
{"changes": "Q27M N35W W56D", "group": "Ctrl", "log10 Kd (nM) by replicate": "0.52 / -0.19 / -0.09 / -0.01 / 0.18 / 0.21", "mean log10 Kd (nM)": "0.10", "empty controls": "0/18"}
{"changes": "S26R R99F", "group": "Ctrl", "log10 Kd (nM) by replicate": "1.55 / ND / ND / ND / ND / ND", "mean log10 Kd (nM)": "1.55", "empty controls": "0/18"}
{"changes": "S28L H98D", "group": "Ctrl", "log10 Kd (nM) by replicate": "ND / ND / ND / ND / ND / ND", "mean log10 Kd (nM)": "ND", "empty controls": "1/18 (1.99)"}
{"changes": "L30R W56H S62G R99W S103L", "group": "Ctrl", "log10 Kd (nM) by replicate": "ND / 2.06 / ND / ND / ND / ND", "mean log10 Kd (nM)": "2.06", "empty controls": "0/18"}
{"changes": "S25L A57D T59Q H98Q", "group": "Ctrl", "log10 Kd (nM) by replicate": "0.80 / 0.30 / 0.42 / 0.08 / 0.84 / 0.55", "mean log10 Kd (nM)": "0.50", "empty controls": "0/18"}
{"changes": "W56A T59H S103L", "group": "Ctrl", "log10 Kd (nM) by replicate": "ND / ND / ND / 2.91 / 1.88 / 1.87", "mean log10 Kd (nM)": "2.22", "empty controls": "2/18 (2.14)"}
{"changes": "K36A W56N", "group": "Ctrl", "log10 Kd (nM) by replicate": "ND / ND / 0.85 / ND / 1.83 / ND", "mean log10 Kd (nM)": "1.34", "empty controls": "0/18"}
{"changes": "S33K Q95D", "group": "Ctrl", "log10 Kd (nM) by replicate": "ND / ND / ND / ND / ND / ND", "mean log10 Kd (nM)": "ND", "empty controls": "0/18"}
{"changes": "R60Q L100C S103Q", "group": "Ctrl", "log10 Kd (nM) by replicate": "ND / ND / ND / ND / ND / ND", "mean log10 Kd (nM)": "ND", "empty controls": "0/18"}

Top 5 of the variants detected in all replicates, tightest first:

{"changes": "S25I R34P W56Q", "group": "Ctrl", "log10 Kd (nM) by replicate": "0.05 / -0.15 / -0.26 / -0.09 / -0.21 / 0.05", "mean log10 Kd (nM)": "-0.10", "empty controls": "0/18"}
{"changes": "Q27M N35W W56D", "group": "Ctrl", "log10 Kd (nM) by replicate": "0.52 / -0.19 / -0.09 / -0.01 / 0.18 / 0.21", "mean log10 Kd (nM)": "0.10", "empty controls": "0/18"}
{"changes": "V29E W56N", "group": "Ctrl+GP_Gen", "log10 Kd (nM) by replicate": "-0.08 / -0.15 / -0.37 / -0.20 / -0.25 / -0.12; 0.87 / 0.81 / 0.68 / 0.89 / 0.54 / 1.10", "mean log10 Kd (nM)": "0.31", "empty controls": "1/36 (2.75)"}
{"changes": "W56G Q96A", "group": "Ctrl+GP_HC", "log10 Kd (nM) by replicate": "0.88 / 0.78 / 0.79 / 0.90 / 0.95 / 0.73; 0.02 / 0.17 / -0.53 / -0.17 / -0.42 / 0.25", "mean log10 Kd (nM)": "0.36", "empty controls": "1/36 (3.69)"}
{"changes": "W56G Q95L", "group": "Ctrl", "log10 Kd (nM) by replicate": "0.22 / 0.45 / 0.26 / 0.07 / 0.55 / 0.83", "mean log10 Kd (nM)": "0.40", "empty controls": "1/18 (2.83)"}